# Laboratory results taken from ChEMBL document CHEMBL1155317, “Design and optimisation of potent gp120-CD4 inhibitors” (Bioorg Med Chem Lett, 2009).
# Test system: Rattus norvegicus
# Assay: Unbound clearance in rat at 1 mg/kg, iv and 1 mg/kg, po
# Type: ADME, organism-based
# Details: in vivo
compound,measurement,value
CNC(=O)c1cc(OC)c(O[C@@H](C)C(=O)N2CCN(C(=O)c3ccccc3)C[C@H]2C)cn1,CL free,26 mL/min/kg
